Results on three molecules are retold here after patent US20090053740A1, “AGGLUTINATION-BASED METHOD FOR FAST DETECTION, ISOLATION AND QUANTIFICATION OF APOPTOTIC CELLS” (CEDARS-SINAI MEDICAL CENTER, priority 2005, published 2009).

In one assay the test system is L1210 cells. The assay is classed as binding, murine.

Like-named read-outs stand apart in the source and are kept apart here.

Regarding `CN(Cc1cnc2nc(N)nc(N)c2n1)c1ccc(C(=O)N[C@@H](CCC(=O)O)C(=O)O)cc1` [methotrexate], in the assay on L1210R cells (100 μg/ml), the apoptosis induction entry was “induced apoptosis”.

On to `N.N.[Cl][Pt][Cl]` [cisplatin, cis-diamminodichloroplatinum], for which the apoptosis induction result in the assay on L1210R cells (0.5 μg/ml) was “did not induce apoptosis”; in the assay with L1210R cells (5 μg/ml), “induced apoptosis”.

B1: PSL: Pisum sativum lectin, α-D-mannose-specific (protein, UniProt P02867 31-217; P02867 218-275, looked up)
Lectin beta chain: TETTSFLITKFSPDQQNLIFQGDGYTTKEKLTLTKAVKNTVGRALYSSPIHIWDRETGNVANFVTSFTFVINAPNSYNVADGFTFFIAPVDTKPQTGGGYLGVFNSAEYDKTTQTVAVEFDTFYNAAWDPSNRDRHIGIDVNSIKSVNTKSWKLQNGEEANVVIAFNAATNVLTVSLTYPNSLEEEN
Lectin alpha chain: VTSYTLSDVVSLKDVVPEWVRIGFSATTGAEYAAHEVLSWSFHSELSGTSSSKQAADA
B1: the “densitometric characteristics of lectin binding by apoptotic L1210R cells” value in the assay on L1210 cells is “resembled the characteristics of the apoptotic L1210S cells”.
